According to patent US4004029A, “Compositions and method for treating epilepsy and convulsions” (The Upjohn Company, priority 1975, dated 1977):

Test: in vivo
Conditions: mouse, ip

## O=C1NC(=O)C(c2ccccc2)(c2ccccc2)N1 [diphenylhydantoin, reference compound]
  LD50: 200 mg/kg
